Cyclic peptide permeability, from CycPeptMPDB

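Conditions beyond the assay type are not listed; see the original paper. Other peptides of the study may be missing here. Entries at the database's floor value (log10 P of -10) are not listed.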

PAMPA measures passive passage through an artificial lipid membrane. Permeability is in 10^-6 cm/s, converted from the database's log10 values; higher is more permeable.

| PAMPA (10^-6 cm/s) | structure (SMILES) |
|---|---|
| 3.6 | CC(=O)N1CCC[C@H]1C(=O)N(C)[C@@H](CC(C)C)C(=O)N[C@@H]1C(=O)N(C)[C@@H](CC(C)C)C(=O)N(C)[C@H](CC(C)C)C(=O)N(C)[C@@H](CC(C)C)C(=O)N(C)[C@H](C)C(=O)N[C@H](CC(C)C)C(=O)N2CCC[C@H]2C(=O)O[C@@H]1C |
| 5 | CC(=O)N1CCC[C@@H]1C(=O)N(C)[C@@H](CC(C)C)C(=O)N[C@@H]1C(=O)N[C@H](CC(C)C)C(=O)N(C)[C@H](CC(C)C)C(=O)N(C)[C@@H](CC(C)C)C(=O)N(C)[C@H](C)C(=O)N[C@@H](CC(C)C)C(=O)N2CCC[C@H]2C(=O)O[C@@H]1C |
| 0.02 | CC(=O)N1CCC[C@H]1C(=O)N(C)[C@@H](CC(C)C)C(=O)N[C@@H]1C(=O)N(C)[C@@H](CC(C)C)C(=O)N(C)[C@@H](CC(C)C)C(=O)N[C@@H](CC(C)C)C(=O)N[C@@H](C)C(=O)N[C@H](CC(C)C)C(=O)N2CCC[C@@H]2C(=O)O[C@@H]1C |
| 1.9 | CC(=O)N1CCC[C@H]1C(=O)N(C)[C@H](CC(C)C)C(=O)N[C@@H]1C(=O)N[C@H](CC(C)C)C(=O)N(C)[C@@H](CC(C)C)C(=O)N[C@@H](CC(C)C)C(=O)N[C@@H](C)C(=O)N[C@H](CC(C)C)C(=O)N2CCC[C@H]2C(=O)O[C@@H]1C |
| 3.5 | CC(=O)N1CCC[C@@H]1C(=O)N(C)[C@@H](CC(C)C)C(=O)N[C@@H]1C(=O)N[C@H](CC(C)C)C(=O)N(C)[C@@H](CC(C)C)C(=O)N(C)[C@@H](CC(C)C)C(=O)N[C@@H](C)C(=O)N[C@H](CC(C)C)C(=O)N2CCC[C@H]2C(=O)O[C@@H]1C |
| 0.078 | CC(=O)N1CCC[C@@H]1C(=O)N(C)[C@H](CC(C)C)C(=O)N[C@@H]1C(=O)N[C@@H](CC(C)C)C(=O)N[C@H](CC(C)C)C(=O)N[C@H](CC(C)C)C(=O)N(C)[C@@H](C)C(=O)N[C@H](CC(C)C)C(=O)N2CCC[C@H]2C(=O)O[C@@H]1C |
| 0.42 | CC(=O)N1CCC[C@@H]1C(=O)N(C)[C@H](CC(C)C)C(=O)N[C@@H]1C(=O)N[C@H](CC(C)C)C(=O)N(C)[C@@H](CC(C)C)C(=O)N[C@H](CC(C)C)C(=O)N[C@@H](C)C(=O)N[C@H](CC(C)C)C(=O)N2CCC[C@H]2C(=O)O[C@@H]1C |
| 1.1 | CC(=O)N1CCC[C@H]1C(=O)N[C@@H]1C(=O)N(C)[C@H](CC(C)C)C(=O)N[C@@H](CC(C)C)C(=O)N[C@H](CC(C)C)C(=O)N(C)[C@H](CC(C)C)C(=O)N(C)[C@H](C)C(=O)N[C@@H](CC(C)C)C(=O)N2CCC[C@@H]2C(=O)O[C@@H]1C |
| 0.21 | CC(=O)N1CCC[C@@H]1C(=O)N(C)[C@@H](CC(C)C)C(=O)N[C@@H]1C(=O)N[C@@H](CC(C)C)C(=O)N(C)[C@@H](CC(C)C)C(=O)N(C)[C@H](CC(C)C)C(=O)N[C@@H](C)C(=O)N[C@@H](CC(C)C)C(=O)N2CCC[C@H]2C(=O)O[C@@H]1C |
| 0.11 | CC(=O)N1CCC[C@@H]1C(=O)N(C)[C@@H](CC(C)C)C(=O)N[C@@H]1C(=O)N[C@H](CC(C)C)C(=O)N[C@@H](CC(C)C)C(=O)N[C@@H](CC(C)C)C(=O)N[C@@H](C)C(=O)N[C@@H](CC(C)C)C(=O)N2CCC[C@@H]2C(=O)O[C@@H]1C |
| 0.087 | CC(=O)N1CCC[C@@H]1C(=O)N(C)[C@H](CC(C)C)C(=O)N[C@@H]1C(=O)N[C@@H](CC(C)C)C(=O)N[C@H](CC(C)C)C(=O)N(C)[C@H](CC(C)C)C(=O)N(C)[C@H](C)C(=O)N[C@@H](CC(C)C)C(=O)N2CCC[C@@H]2C(=O)O[C@@H]1C |
| 12 | CC(=O)N1CCC[C@H]1C(=O)N[C@@H]1C(=O)N[C@H](CC(C)C)C(=O)N(C)[C@H](CC(C)C)C(=O)N(C)[C@H](CC(C)C)C(=O)N[C@H](CC(C)C)C(=O)N(C)[C@@H](C)C(=O)N[C@@H](CC(C)C)C(=O)N2CCC[C@@H]2C(=O)O[C@@H]1C |
| 7.8 | CC(=O)N1CCC[C@H]1C(=O)N[C@@H]1C(=O)N[C@H](CC(C)C)C(=O)N[C@H](CC(C)C)C(=O)N(C)[C@H](CC(C)C)C(=O)N(C)[C@@H](CC(C)C)C(=O)N(C)[C@H](C)C(=O)N[C@@H](CC(C)C)C(=O)N2CCC[C@@H]2C(=O)O[C@@H]1C |
| 0.27 | CC(=O)N1CCC[C@@H]1C(=O)N(C)[C@H](CC(C)C)C(=O)N[C@@H]1C(=O)N(C)[C@@H](CC(C)C)C(=O)N[C@@H](CC(C)C)C(=O)N[C@@H](CC(C)C)C(=O)N(C)[C@@H](C)C(=O)N[C@@H](CC(C)C)C(=O)N2CCC[C@@H]2C(=O)O[C@@H]1C |
| 5.2 | CC(=O)N1CCC[C@H]1C(=O)N[C@@H]1C(=O)N[C@H](CC(C)C)C(=O)N[C@@H](CC(C)C)C(=O)N(C)[C@@H](CC(C)C)C(=O)N[C@H](CC(C)C)C(=O)N(C)[C@H](C)C(=O)N[C@@H](CC(C)C)C(=O)N2CCC[C@@H]2C(=O)O[C@@H]1C |
| 7.8 | CC(=O)N1CCC[C@H]1C(=O)N[C@@H]1C(=O)N[C@H](CC(C)C)C(=O)N(C)[C@@H](CC(C)C)C(=O)N(C)[C@@H](CC(C)C)C(=O)N(C)[C@@H](CC(C)C)C(=O)N[C@@H](C)C(=O)N[C@@H](CC(C)C)C(=O)N2CCC[C@@H]2C(=O)O[C@@H]1C |
| 4.5 | CC(=O)N1CCC[C@@H]1C(=O)N(C)[C@@H](CC(C)C)C(=O)N[C@@H]1C(=O)N(C)[C@@H](CC(C)C)C(=O)N(C)[C@H](CC(C)C)C(=O)N(C)[C@@H](CC(C)C)C(=O)N(C)[C@H](C)C(=O)N[C@@H](CC(C)C)C(=O)N2CCC[C@@H]2C(=O)O[C@@H]1C |
| 3.1 | CC(=O)N1CCC[C@H]1C(=O)N[C@@H]1C(=O)N[C@H](CC(C)C)C(=O)N(C)[C@@H](CC(C)C)C(=O)N[C@@H](CC(C)C)C(=O)N[C@H](CC(C)C)C(=O)N(C)[C@@H](C)C(=O)N[C@@H](CC(C)C)C(=O)N2CCC[C@@H]2C(=O)O[C@@H]1C |
| 6.9 | CC(=O)N1CCC[C@@H]1C(=O)N(C)[C@H](CC(C)C)C(=O)N[C@@H]1C(=O)N[C@H](CC(C)C)C(=O)N(C)[C@H](CC(C)C)C(=O)N(C)[C@@H](CC(C)C)C(=O)N(C)[C@@H](C)C(=O)N[C@H](CC(C)C)C(=O)N2CCC[C@@H]2C(=O)O[C@@H]1C |
| 2.1 | CC(=O)N1CCC[C@H]1C(=O)N(C)[C@@H](CC(C)C)C(=O)N[C@@H]1C(=O)N(C)[C@H](CC(C)C)C(=O)N[C@@H](CC(C)C)C(=O)N(C)[C@H](CC(C)C)C(=O)N(C)[C@H](C)C(=O)N[C@H](CC(C)C)C(=O)N2CCC[C@H]2C(=O)O[C@@H]1C |
| 2.6 | CC(=O)N1CCC[C@H]1C(=O)N[C@@H]1C(=O)N[C@H](CC(C)C)C(=O)N[C@@H](CC(C)C)C(=O)N[C@@H](CC(C)C)C(=O)N(C)[C@H](CC(C)C)C(=O)N(C)[C@@H](C)C(=O)N[C@@H](CC(C)C)C(=O)N2CCC[C@@H]2C(=O)O[C@@H]1C |
| 6.2 | CC(=O)N1CCC[C@H]1C(=O)N(C)[C@@H](CC(C)C)C(=O)N[C@@H]1C(=O)N[C@H](CC(C)C)C(=O)N(C)[C@H](CC(C)C)C(=O)N[C@@H](CC(C)C)C(=O)N(C)[C@H](C)C(=O)N[C@H](CC(C)C)C(=O)N2CCC[C@H]2C(=O)O[C@@H]1C |

Excerpt, the opening 3 entries:

{"smiles": "CC(=O)N1CCC[C@H]1C(=O)N(C)[C@@H](CC(C)C)C(=O)N[C@@H]1C(=O)N(C)[C@@H](CC(C)C)C(=O)N(C)[C@H](CC(C)C)C(=O)N(C)[C@@H](CC(C)C)C(=O)N(C)[C@H](C)C(=O)N[C@H](CC(C)C)C(=O)N2CCC[C@H]2C(=O)O[C@@H]1C", "PAMPA (10^-6 cm/s)": "3.6"}
{"smiles": "CC(=O)N1CCC[C@@H]1C(=O)N(C)[C@@H](CC(C)C)C(=O)N[C@@H]1C(=O)N[C@H](CC(C)C)C(=O)N(C)[C@H](CC(C)C)C(=O)N(C)[C@@H](CC(C)C)C(=O)N(C)[C@H](C)C(=O)N[C@@H](CC(C)C)C(=O)N2CCC[C@H]2C(=O)O[C@@H]1C", "PAMPA (10^-6 cm/s)": "5"}
{"smiles": "CC(=O)N1CCC[C@H]1C(=O)N(C)[C@@H](CC(C)C)C(=O)N[C@@H]1C(=O)N(C)[C@@H](CC(C)C)C(=O)N(C)[C@@H](CC(C)C)C(=O)N[C@@H](CC(C)C)C(=O)N[C@@H](C)C(=O)N[C@H](CC(C)C)C(=O)N2CCC[C@@H]2C(=O)O[C@@H]1C", "PAMPA (10^-6 cm/s)": "0.02"}

Source: CycPeptMPDB (Li et al. 2023), which took these values from Kelly et al. 2021, doi:10.1021/jacs.0c06115.